In patent publication US20100298280A1, “Compounds for the Modulation of Huntingtin Aggregation, Methods and Means for Identifying Such Compounds” (priority 2007, published 2010):

Target: mutant huntingtin aggregates (HDex1Q68 fused to ECFP/EYFP) (Homo sapiens, UniProt P42858, INS38QQQQQQQQQQQQQQQQQQQQQQQQQQQQQQQQQQQQQQQQQQQQQQQ)
Test: Cellular FRET aggregation assay in stable Tet-off CHO-AA8/Q68-Q68 cells
Type: cell-based
Details: 48 h, 2% DMSO
Experimental: To determine the potential of possibly inhibiting substances the inventors performed dose response assays at concentrations ranging from 1, to 100 μM.
Screening was performed in 96-well plates (greiner bio-one) containing 1×10^4 cells/well of the stably inducible tet off cell lines htt-mut (six-fold) and CHO-AA8 line (three fold) for background control. Simultaneously, each compound was checked for its potential autofluorescence.
Two stable inducible CHO Tet off cell lines were constructed expressing simultaneously wildtype (CHO-AA8/Q17-Q17) or mutant (CHO-AA8/Q68-Q68) huntingtin fragments fused to ECFP or EYFP (FIG. 1B) after withdrawal of doxicycline (dox). Basal and induced expression levels of huntingtin fusion proteins were examined by Western blot analysis at different time intervals (4, 24, 48, and 72 hours). […] For the screening approach stable inducible huntingtin expressing cell lines were seeded in 96-well plates and the fluorescence intensities were measured with a fluorescence plate reader.
The test compounds were mixed in a fresh doxicycline-free medium with 2% DMSO and added to the Tet off cell lines two to three hours after seeding and attachment of the cells.
The FRET-measurement was performed 48 h later.
Subsequently, a second screening round was performed at concentration range 1, 3, and 10 μM, respectively.

Structure (SMILES): Nc1nc2ccc(OC(F)(F)F)cc2s1 [Riluzole]
- FRET-signal (effect in words): no effect
